Assays:
[1] = molecular target: T1, Mitogen-activated protein kinase 14 (Homo sapiens, UniProt Q16539); assay: Potency index, ratio of EW-7197 IC50 to test compound IC50 for recombinant human p38alpha expressed in Escherichia coli assessed as incoporation of [33]Pi after 60 mins in presence of [gamma-33P]-ATP by microplate scintillation counter method
[2] = molecular target: T1, Mitogen-activated protein kinase 14; assay: Potency index, ratio of LY-2157299 IC50 to test compound IC50 for recombinant human p38alpha expressed in Escherichia coli assessed as incoporation of [33]Pi after 60 mins in presence of [gamma-33P]-ATP by microplate scintillation counter method

By UniProt entry, the sequences of proteins in these tests, tags left out.
UniProt Q16539, whole entry: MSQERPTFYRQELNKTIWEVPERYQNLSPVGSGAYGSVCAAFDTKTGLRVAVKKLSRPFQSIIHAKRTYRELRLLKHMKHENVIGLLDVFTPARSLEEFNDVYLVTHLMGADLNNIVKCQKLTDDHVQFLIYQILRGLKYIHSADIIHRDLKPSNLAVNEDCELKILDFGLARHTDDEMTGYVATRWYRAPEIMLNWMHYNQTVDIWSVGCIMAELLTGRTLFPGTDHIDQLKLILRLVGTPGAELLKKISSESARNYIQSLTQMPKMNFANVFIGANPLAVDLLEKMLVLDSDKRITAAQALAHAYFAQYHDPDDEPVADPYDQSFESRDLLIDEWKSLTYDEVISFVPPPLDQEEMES

Ratio IC50 [1]: 738
Ratio IC50 [2]: 123
Structure (SMILES): Cc1cccc(-c2[nH]c(CNc3cccc(F)c3)nc2-c2ccc3[nH]ncc3c2)n1
